In the data set the target is CYP2D6 (Homo sapiens (Human), UniProt P10635). The experiment in a line: Inhibition of Cytochrome P4502D6 (CYP2D6) using Supersomes. It counts as in vitro ADME. The conditions noted are these: AMMC substrate, read-out: IC50 (Fluorinated derivative). The protocol: The inhibition of Cytochrome P4502D6 (CYP2D6) is assessed by performing in vitro inhibition studies using Supersomes, microsomes derived from baculovirus infected insect cells; the baculoviruses are engineered to express one or more drug metabolizing enzyme cDNAs. Supersomes catalyze the same enzymatic reactions as human liver microsome enzymes, but they contain much higher enzyme activity than other microsome sources (Crespi C. L. and Penman B. W., Advances Pharmacology, 43, 171-188 (1997); Crespi C. L. and Miller V. P., Analytical Biochemistry, 248, 188-190 (1997)).
Kits with Supersomes are Supplied by GENTEST (MA, USA).
Test compound is dissolved in DMSO 500× the highest final concentration desired in the IC50 assay. 30 ml of deionized water is pre-warmed to 37° C. and all kit components are placed on ice. For each well of column 1, 149.4 μL of NADPH-Cofactor Mix, (187.5 μl of Cofactors, 150 μl of G6PDH, 100 μl of Control Protein and 14.56 ml of 37° C. water) are added.
In each well from Column 2 to 12, 100 μl of Cofactor/DMSO mix (40 μL DMSO in 9.96 ml of NADPH-Cofactor Mix) are added. To each well of column 1, 0.6 μl of test compound or positive control are added. 50 μl from each well of column 1 are serially diluted to column 8. The extra 50 μl from column 8 are discarded. The plate is covered and pre-incubated at 37° C. for 10 minutes.
Preparation of enzyme/substrate mix: 7.92 ml of pre-warmed deionized water, 75 μl of enzyme, 3 μl of 10 mM AMMC and 2 ml of pre-warmed buffer are mixed.
After the pre-incubation time (10′), 100 μl of enzyme/substrate mix to each well from column 1 to 10 are added. The plate is incubated at 37° C. for 30 minutes. After this time, 75 μl of Stop Reagent to each well are added. For blank controls, 100 μl of enzyme/substrate mix are added to columns 11 and 12.
Plates are read at the Victor plate reader (Perkin Elmer, MA—USA) at 390 nm excitation and 460 nm emission wavelengths.

By UniProt entry, the sequences of proteins in these tests, tags left out.
UniProt P10635, whole entry: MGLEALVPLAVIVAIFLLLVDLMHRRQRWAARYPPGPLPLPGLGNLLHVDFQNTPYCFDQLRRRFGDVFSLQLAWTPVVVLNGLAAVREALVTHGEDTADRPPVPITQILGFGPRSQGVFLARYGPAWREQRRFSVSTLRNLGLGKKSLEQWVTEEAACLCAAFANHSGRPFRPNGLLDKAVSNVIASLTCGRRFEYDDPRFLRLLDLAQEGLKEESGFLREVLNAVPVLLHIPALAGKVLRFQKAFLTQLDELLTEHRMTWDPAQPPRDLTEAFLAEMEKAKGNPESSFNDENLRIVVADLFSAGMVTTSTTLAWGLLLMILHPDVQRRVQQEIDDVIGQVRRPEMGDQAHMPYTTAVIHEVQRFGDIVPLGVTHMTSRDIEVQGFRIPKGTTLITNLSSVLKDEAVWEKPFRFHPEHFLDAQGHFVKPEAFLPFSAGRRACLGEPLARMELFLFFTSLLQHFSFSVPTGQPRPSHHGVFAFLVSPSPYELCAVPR

As usually defined, the IC50 is the concentration that gives 50% inhibition.

Structures can show the parent of a compound that is named as a salt.

`CN(C)C(=O)CNCC(F)(F)c1cccc(OCc2ccccc2)c1` [Example 1-14, 2-[2,2-Difluoro-2-(3-benzyloxyphenyl)-ethylamino]-N,N-dimethyl-acetamide, hydrochloride]: the IC50 is more than 40 µM.
Regarding `CCCCOc1cccc(C(F)(F)CNCC(=O)N(CC)CC)c1` [Example 1-32, 2-[2,2-Difluoro-2-(3-butoxyphenyl)-ethylamino]-N,N-diethyl-acetamide, hydrochloride], the half-maximal inhibitory concentration (IC50) amounted to 34 µM.
On to `CCCCOc1cccc(C(F)(F)CNCC(=O)N2CCCCC2)c1` [Example 1-29, 2-[2,2-Difluoro-2-(3-butoxyphenyl)-ethylamino]-1-(piperidin-1-yl)-ethanone, hydrochloride], for which the IC50 stood at 38.3 µM.
